We go through one compound from patent publication US8912188B2, “Substituted quinoxaline carboxylic acids for the inhibition of PASK” (BioEnergenix, LLC, priority 2011, dated 2014).

The chains behind the UniProt entries cited, without tags or fusion partners. Residues count along the entry.
UniProt Q96RG2, 999-1251 limits assumed: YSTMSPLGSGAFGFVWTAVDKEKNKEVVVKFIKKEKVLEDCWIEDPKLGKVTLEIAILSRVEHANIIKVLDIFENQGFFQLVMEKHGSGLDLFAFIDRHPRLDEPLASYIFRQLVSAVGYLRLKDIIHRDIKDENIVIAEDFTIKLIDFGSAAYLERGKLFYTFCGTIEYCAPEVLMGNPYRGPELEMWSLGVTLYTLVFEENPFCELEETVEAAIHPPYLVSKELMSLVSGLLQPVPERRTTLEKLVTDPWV
UniProt Q96RG2, 879-1323, stated change not applied: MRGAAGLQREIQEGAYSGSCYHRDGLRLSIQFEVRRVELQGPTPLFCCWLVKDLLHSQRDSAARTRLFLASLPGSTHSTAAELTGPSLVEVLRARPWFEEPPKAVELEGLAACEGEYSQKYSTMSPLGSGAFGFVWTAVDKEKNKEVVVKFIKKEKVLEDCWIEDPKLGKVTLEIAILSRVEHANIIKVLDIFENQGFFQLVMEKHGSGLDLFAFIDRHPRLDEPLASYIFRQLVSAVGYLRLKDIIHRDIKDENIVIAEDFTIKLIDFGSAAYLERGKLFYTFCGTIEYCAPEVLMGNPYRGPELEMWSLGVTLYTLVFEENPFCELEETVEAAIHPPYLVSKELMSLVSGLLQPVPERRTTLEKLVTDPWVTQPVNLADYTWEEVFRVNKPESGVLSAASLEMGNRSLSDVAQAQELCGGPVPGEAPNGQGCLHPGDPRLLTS

The target of one experiment is T1, PASK (Invitrogen) (Homo sapiens, UniProt Q96RG2).
T1 construct: IC50 Kinase Domain; purchased Invitrogen
Description: PAS Kinase FRET Assay. It counts as biochemical. As to conditions: PAS kinase TR-FRET assay (665 nm/615 nm), 2 hours at 25° C.; read-out: IC50 Kinase Domain. The text has this: (§1) Biochemical Assay for hPASK Activity
The aim of the FRET assay is to determine the inhibition potential of test compounds on targeted kinase. This assay platform provides a homogenous screening method for measuring kinase activity by quantitating the amount of phospho-substrate in solution following a kinase reaction.
In the presence of kinase and ATP, the Ulight-peptide is phosphorylated and captured by an anti-phospho-substrate antibody, which brings the Eu chelate donor and Ulight acceptor dyes into close proximity.
Titration of kinase at 1 mM ATP was achieved via the following protocol. […] The contents of the plate were incubated at RT for 1 h. The reaction was stopped by adding 5 μl of stop solution to each test well followed by mixing and incubation at RT for 10 minutes. 5 μl of detection mix (detection antibody diluted in detection buffer) was added; the contents of the plate were mixed and then incubated in the dark for 1 hour at RT. […] The results were graphed to calculate the EC50.
Titration of ATP at the EC50 concentration of kinase to determine ATP Km,app. was performed using the following method. […] The contents of the plate were and incubated at RT for 1 h. The reaction was stopped by adding 5 μl of stop solution to each test well followed by mixing and incubation at RT for 10 minutes. […]

The target in the next experiment is T2, PASK (UniProt #Q96RG2; human recombinant N-terminal GST tagged construct, residues 879-1323) (Homo sapiens, UniProt Q96RG2).
T2 construct: human recombinant N-terminal GST tagged construct, residues 879-1323; GST (N); host or cells: insect cells
Put plainly: PASK ATP Radiochemical Assay. It counts as biochemical. As to conditions: 33P-ATP, Myelin Basic Protein substrate, 120 min at room temperature, read-out: IC50 Kinase Domain. The procedure: as §1
PASK ATP Radiochemical Assay
Test compounds in DMSO are then added and the mixture, followed by delivery of ^33P-ATP (specific activity 0.01 μCi/μl final) to initiate the reaction. […] The entire reaction mixture is washed through onto a P81 Phosphocellulose paper and washed three times for 10 minutes in 75 mM phosphoric acid and once in methanol prior to drying and scintillation counting.

Regarding `C[C@@H]1CCCN1c1nc2cc(C(=O)O)ccc2nc1-c1ccc(F)cc1` [Example 150, (R)-2-(4-Fluorophenyl)-3-(2-methylpyrrolidin-1-yl)quinoxaline-6-carboxylic acid], the IC50 at PASK (Invitrogen) and on PASK was under 10 µM each time.
